Source: patent US5292887A, “Substituted imidazole derivatives and their preparation and use” (priority 1988, dated 1994)

Sequences of proteins named here, by UniProt entry; tags and fusion partners are left off.
UniProt P22909, whole entry: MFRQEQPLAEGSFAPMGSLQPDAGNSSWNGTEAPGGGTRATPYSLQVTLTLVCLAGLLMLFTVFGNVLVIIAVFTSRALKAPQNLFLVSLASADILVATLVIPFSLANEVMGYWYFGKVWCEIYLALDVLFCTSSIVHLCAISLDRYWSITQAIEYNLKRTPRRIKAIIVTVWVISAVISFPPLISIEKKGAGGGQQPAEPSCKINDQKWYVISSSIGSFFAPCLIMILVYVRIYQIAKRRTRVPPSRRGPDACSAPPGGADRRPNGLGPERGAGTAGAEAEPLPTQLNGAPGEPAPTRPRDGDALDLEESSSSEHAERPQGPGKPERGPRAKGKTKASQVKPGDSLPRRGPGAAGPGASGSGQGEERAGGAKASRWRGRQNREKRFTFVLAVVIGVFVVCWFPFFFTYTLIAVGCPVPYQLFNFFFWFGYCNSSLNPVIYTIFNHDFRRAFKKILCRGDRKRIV

Target: T1, α2-adrenoceptor (Rattus norvegicus, UniProt P22909)
T1 construct: In anaesthetized rat, a standard dose of detomidine was administered intravenously; from tissue; host or cells: whole anaesthetized rat (pupil response, in vivo)
Assay: Reversal of detomidine-induced mydriasis in anaesthetized rat (α2-adrenoceptor antagonism)
Format: in vivo
Conditions: iv, read-out: α2-antagonism (ED50 vs detomidine)

`CCC1(c2cnc[nH]2)Cc2ccccc2C1` [atipamezole, reference compound] gave an ED50 of 3 µg/kg.
